Measured values from patent US20100055093A1, “PAN-CELL SURFACE RECEPTOR-SPECIFIC THERAPEUTICS” (RECEPTOR BIOLOGIX INC., priority 2006, published 2010).
Where two headings read alike, the source gives them in different places.

By UniProt entry, the sequences of proteins in these tests, tags left out. Residues count along the entry.
UniProt P01133, 971-1023 limits assumed: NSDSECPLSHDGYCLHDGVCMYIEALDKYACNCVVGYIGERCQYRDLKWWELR

Assays:
[1] = tested on: HER family proteins (HER1, HER2, HER3); experiment: Phosphotyrosine ELISA for HER family proteins, HER1, HER2 and HER3 together (panHER Index); type: cell-based, human; conditions: for inhibition of EGF stimulated phosphorylation of HER proteins: cell lines tested
[2] = molecular target: T1, HER1 (Homo sapiens, UniProt P00533); experiment: ELISA-based HER receptor phosphorylation assay, HER1; type: cell-based; set-up: endogenous in cells; host or cells: A431, A549, HT-29, N87, SK-BR-3, ZR-75-1; conditions: A431 cells, in the presence of EGF; read-out: IC50, inhibition of HER1 phosphorylation
Procedure: (§1) Phosphorylation of HER receptors was assessed in an ELISA-based HER Receptor phosphorylation assay. Various cells (A431, MCF7, SK-BR3, SK-OV3, MCF7/HER2) were serum-starved in serum free medium for about 24 hr. Cells were then treated with increasing concentrations of candidate HER ECD derivatives (see below) for 30 min at 37° C., ligands (EGF, 3 nM and/or HRGβ, 5 nM were then added for 10 min incubation. After treatment, cells were washed with PBS once and lysed with 100 μl of 1× Cell Lysis Buffer (Cell Signaling) with addition of protease and phosphtase inhibitors (Protease Inhibitor Cocktail Set and Phosphatase Inhibitor Set, Calbiochem).
(§2) Cells were lysed on ice for 15 min and cell lysate were applied to a 96-well plate pre-coated with the respective receptor-specific capture antibodies (antibodies were purchased from R & D System) by manufacture recommended concentrations (0.4 to 4 ug/ml) and condition (in PBS, room temperature, overnight). Cell lysates were incubated with the capture Ab plate for 3 hrs at room temperature. Plates were washed 3× with PBST buffer. Anti-phosphotyrosine antibody clone 4G10 HRP-conjugated (Upstate) were diluted at 1:1000 in 1% of BSA.PBS and added to the plates, 100 μl/well for 1 hr to detect specifically HER receptors phosphorylated on tyrosine. […] The optical density was determined by microplate reader at 650 nm (Molecular Devices, VERSAmax).

[3] = molecular target: T2, HER2 (Homo sapiens, UniProt P04626); experiment: ELISA-based HER receptor phosphorylation assay, HER2; type: cell-based; conditions: EGF; for maximal inhibition of HER2 phosphorylation: 600 nM protein; for IC50: read-out: IC50, inhibition of HER2 phosphorylation
T2 construct: endogenous in cells
Procedure: as §1
Cells were lysed on ice for 15 min and cell lysate were applied to a 96-well plate pre-coated with the respective receptor-specific capture antibodies (antibodies were purchased from R & D System) by manufacture recommended concentrations (0.4 to 4 ug/ml) and condition (in PBS, room temperature, overnight). Cell lysates were incubated with the capture Ab plate for 3 hrs at room temperature. Plates were washed 3× with PBST buffer. Anti-phosphotyrosine antibody clone 4G10 HRP-conjugated (Upstate) were diluted at 1:1000 in 1% of BSA.PBS and added to the plates, 100 μl/well for 1 hr to detect specifically HER receptors phosphorylated on tyrosine. After 3× PBST wash, the plates were developed by adding 100 μl of substrate solution (TMB, Sigma) and stopped by 50 μl of SDS stop solution. The optical density was determined by microplate reader at 650 nm (Molecular Devices, VERSAmax).

[4] = molecular target: EGF (Homo sapiens, UniProt P01133); experiment: 125I-EGF binding with BS3 cross-linking and SDS-PAGE; conditions: supernatant of transfected 293T cells, 5 nM 125I-EGF, BS3 cross-linking, SDS-PAGE
[5] = molecular target: T1, HER1; experiment: ELISA-based HER receptor phosphorylation assay, HER1; type: cell-based; set-up: endogenous in cells; conditions: A431 cells, EGF, 600 nM protein
Procedure: as §1, §2

## Herceptin: humanized version of a murine monoclonal antibody, targets the extracellular domain of HER2
[1]
  inhibition of EGF stimulated phosphorylation of HER proteins: did not inhibit

## C225: HER1 directed biologic, inhibits EGF binding to HER1
[1]; any of the cell lines tested
  inhibition of NRG1β1 stimulated phosphorylation of HER family proteins: did not inhibit
[1]
  inhibition of EGF stimulated phosphorylation of HER proteins: as efficacious as RB200h

## HF110T: truncated HER1 ECD, residues 1-501, SEQ ID NO:10; T = C-terminal myc-His tag
[2]
  IC50: 98 nM
[3]; A431 cells
  maximal inhibition of HER2 phosphorylation: about 50%
  IC50: 42 nM
[3]; MCF7 cells
  maximal inhibition of HER2 phosphorylation: about 50%
  IC50: 18 nM
[4]
  binding of 125I-EGF: no detectable binding
[5]
  maximal inhibition of HER1 phosphorylation: about 60%

## HFD110: truncated HER1 ECD (1-501) fused to Fc, SEQ ID NO:38
[4]
  binding of 125I-EGF: substantially increased binding
